Experimental findings from patent US9474754B2, “Pharmaceutical combinations comprising a B-RAF inhibitor, and EGFR inhibitor and optionally a PI3K-α inhibitor” (NOVARTIS AG, priority 2012, dated 2016) are described below.

The subject of this data set is HT-29 human colorectal adenocarcinoma xenograft. The class given is in vivo. As for the experimental part: A fresh suspension was prepared every two weeks and stored at room temperature.
A fresh suspension was prepared weekly and stored at 4° C.
Dosing solutions were freshly prepared for one group at a time.
Each agent was administered at a single dose level, individually and in dual and triple combinations, that were initiated on Day 1 (D1) in female nude mice with established subcutaneous tumors. […] Efficacy was determined from mean tumor volume changes between D1 and D29. Prism summarizes test results as not significant (ns) at P>0.05, significant (symbolized by “*”) at 0.01<P≦0.05, very significant (“**”) at 0.001<P≦0.01, and extremely significant (“***”) at P≦0.001.
For the purpose of statistical analyses, ΔTV, the difference in tumor volume between D1 (the start of dosing) and the endpoint day, was determined for every animal. […] The […] values are negative represent net tumor reduction for a group. […] Response to Combination Therapies (Groups 5-8)

Where [1] appears, read: n = 10 per group, doses as in table.

As to cetuximab [reference compound], the “Mean BW Nadir” value (Cpd A 20 mg/kg po bid x 28, Cpd B 25 mg/kg po qd x 28, cetuximab 20 mg/kg ip biwk x 4, paclitaxel 30 mg/kg iv qod x 5) is on record as −1.2%. In addition, the “Mean BW Nadir, day of nadir” value (doses as in table) was “Day 8”. Besides, under setting [1], the “Deaths NTR” value came to 0 and the “Deaths TR” value came to 0.
